# Shown are actives, neighbours in structure and some others; about 1.2% of the full set was active somewhere.
# Pemphigus Ab inh – inhibitors of pemphigus antibody binding to DSG3, primary screen, biochemical, bead-based, flow cytometry, scFv-GFP | Desmoglein-3 (Homo sapiens), P32926 | DSG3-coupled beads, scFv-anti-DSG3-GFP binding; active compounds read low | binding (percent of control), % at 10 µM | 310,000 compounds, 0.48% hits | AID 588358, 2011;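 active = binding more than 3 SD below its plate's average and above zero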;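 also: hits lower antibody fragment binding to DSG3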
# Arr AP2 block – inhibitors of beta-arrestin/AP2 binding, primary screen, biochemical, GPCR trafficking, flow cytometry; beta-arrestin 1 C-terminal peptide binding to AP2 beta2-adaptin appendage (human); FITC-arrestin peptide / GST-AP2 beads; AP2 beta2 appendage carries R879A mutation; inhibition, % at 10 µM; 340,000 compounds, 0.31% hits;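 active = inhibition above a set limit, near 3 SD of compounds lacking own fluorescence, cut at about 54% in these data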
#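 System: GST-AP2 R879A bound to glutathione beads, E. coli-expressed. Also added: 50 nM FITC-arrestin peptide. Schedule: compound with beads 12 min RT, then probe 1 h RT. Signal: bead flow cytometry, FITC channel. Read-out basis: percent response.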
# TbMetRS inhib – T. brucei MetRS inhibitors, primary screen, biochemical, luminescence | methionyl-tRNA synthetase (Trypanosoma brucei brucei) | purified T. brucei MetRS, ATP depletion, Kinase-Glo luminescence | inhibition, % at 11.9 µM | 360,000 compounds, 0.4% hits | AID 624268, 2012;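 active = inhibition above a per-plate cutoff of the control wells' mean inhibition plus 3 SD, cut at about 5.5% in these data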
#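 Test system – parasite MetRS enzyme · Reagent – substrates ATP, L-methionine and bulk Escherichia coli tRNA · Doses – 11.9 µM compound single dose, 0.9% DMSO · Times – 15 min enzyme-compound preincubation, 2 h reaction, 10 min detection, 25 °C · Signal – Kinase-Glo luminescence, ATP depletion format · Controls – DMSO-only wells as low control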
# Rce1 inh – yeast Rce1p protease inhibitors, primary screen, biochemical, fluorescence, cell-free homogeneous; 290,000 compounds, 0.27% hits; calls only; CAAX prenyl protease 2 (Saccharomyces cerevisiae (strain ATCC 204508 / S288c)), Q03530; yeast membranes, quenched prenylated peptide cleavage fluorescence; AID 2563, 2010;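 active = fall in fluorescence gain of 50% or more versus controls, with final raw signal at or below 3038400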
# UUG fidelity – alters start codon recognition fidelity in yeast; S. cerevisiae UUG-firefly luciferase reporter, luminescence/redox ratio; activity score, % at 18.7 µM; hit rate 0.13% among 350,000;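 active = replicate mean at a twofold rise or more, about +100% in these data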;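 also: firefly luciferase made from a UUG start codon reports start codon fidelity; reporter light over untreated wells divided by growth signal over untreated wells; some hits fall short of that in this replicate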
# Tb MetRS conf – T. brucei MetRS inhibitors, confirmation, biochemical, luminescence; shares compounds with TbMetRS inhib; T. brucei MetRS enzyme, luminescence (ATP depletion); inhibition, % at 11.9 µM; 1,400 compounds, 93% hits; AID 624412, 2012; in the data active = inhibition above about 7%
# Jurkat tox – Jurkat T cell cytotoxicity, cytotoxicity control for T. brucei MetRS inhibitor project, luminescence, high throughput | shares compounds with TbMetRS inhib | AID 624413, 2012 | Jurkat cells viability, ATP luminescence | 1,400 compounds, 12% hits | inhibition, % at 8.3 µM; in the data active = inhibition above about 15%
# Tb MetRS inh FP – T. brucei MetRS inhibitors, orthogonal assay for T. brucei MetRS inhibitor project, biochemical, fluorescence polarization | shares compounds with TbMetRS inhib | purified T. brucei MetRS | inhibition, % at 11.9 µM | 1,400 compounds, 44% hits | AID 651607, 2012; in the data active = inhibition above about 17%
# Hits are given with their value; . = inactive; / = no result.
SMILES,Pemphigus Ab inh,Arr AP2 block,TbMetRS inhib,Rce1 inh,UUG fidelity,Tb MetRS conf,Jurkat tox,Tb MetRS inh FP
O=C(COc1ccccc1)Nc1cccc(-c2nc3ccccc3[nH]2)c1,.,.,20.9,.,.,43.0,.,26.2
CN1C[C@@H]2[C@H](c3ccccc31)[C@H](CO)N2C(=O)C1CCCC1,/,/,/,/,.,/,/,/
Cc1ccc(C2CC2C(=O)NNC(=S)Nc2ccc(Cl)cc2)cc1 (stereo not given),.,.,39.3,.,.,66.5,.,37.8
FC(F)Oc1ccc(NC(=S)NCc2nc3ccccc3[nH]2)cc1,.,.,55.4,.,/,64.6,.,39.6
CCOc1ccc(NC(=S)NCc2nc3ccccc3[nH]2)cc1,.,.,.,.,/,/,/,/
Cn1c(COc2ccc(Cl)cc2Cl)nnc1SCC(=O)NCC1CCCO1 (stereo not given),.,.,6.0,.,.,16.6,.,.
O=C(C[C@H]1CC[C@H]2[C@@H](COC[C@H](O)CN2C(=O)Nc2ccc(Cl)c(Cl)c2)O1)NC1CCC1,/,/,/,/,.,/,/,/
COc1cccc(NC(=O)CSCC(=O)Nc2ccccc2)c1,/,.,6.1,.,.,17.7,.,.
CCOc1ccc2[nH]c3c(NCCO)ncnc3c2c1,.,.,.,.,.,/,/,/
CCCCOc1ncnc2c1[nH]c1ccccc12,.,.,.,.,.,/,/,/
CCCCOCCCNc1ncnc2c1[nH]c1ccccc12,.,.,92.7,.,.,105.9,44.0,95.5
CCOCCCNc1ncnc2c1[nH]c1ccccc12,/,.,54.6,.,.,76.4,.,51.6
C[C@@H]1CCCCO[C@@H](CN(C)C(=O)CCC(F)(F)F)[C@H](C)CN([C@@H](C)CO)C(=O)c2cc(NC(=O)CCC(F)(F)F)ccc2O1,/,/,/,/,.,/,/,/
O=C(C[C@@H]1CC[C@@H]2[C@H](COC[C@@H](O)CN2Cc2cccc(F)c2)O1)NCCc1ccncc1,/,/,/,/,.,/,/,/
C[C@H]1CN([C@@H](C)CO)C(=O)c2cc(C#CCC3CCCC3)cnc2O[C@@H]1CN(C)C(=O)CN(C)C,/,/,/,/,.,/,/,/
COCCCN1CC(=O)N2C(c3cccc(OC)c3)c3[nH]c4ccccc4c3C[C@H]2C1=O (stereo not given in full),.,.,11.5,.,.,24.4,.,.
COc1ccc(C2c3[nH]c4ccccc4c3C[C@H]3C(=O)N(CCCO)CC(=O)N23)c(OC)c1 (stereo not given in full),.,.,.,.,.,/,/,/
COCCN1CC(=O)N2C(c3cccc(OC)c3)c3[nH]c4ccccc4c3C[C@H]2C1=O (stereo not given in full),.,.,11.4,.,.,24.3,.,.
CC(C)OCCCN1CC(=O)N2C(c3cccc([N+](=O)[O-])c3)c3[nH]c4ccccc4c3C[C@H]2C1=O (stereo not given in full),.,.,93.2,.,.,94.7,.,85.0
O=C(O)C[C@H]1CC[C@H](NC(=O)Nc2cc(F)ccc2F)[C@H](CO)O1,/,/,/,/,.,/,/,/
Cn1nc(C(F)(F)F)c(-c2cccc(C(F)(F)F)c2)c1NC(=O)Nc1ccc(F)cc1,.,.,40.6,.,.,58.4,.,38.3
C#Cc1ccc([C@H]2C=C(C(=O)NCc3nc4ccccc4[nH]3)O[C@@H](OCc3ccc(CO)cc3)C2)cc1,.,.,31.7,.,.,84.8,.,68.1
